Results published in patent US9487512B2, “(Hetero)aryl cyclopropylamine compounds as LSD1 inhibitors” (ORYZON GENOMICS, S.A., priority 2011, dated 2016).

By UniProt entry, the sequences of proteins in these tests, tags left out.
UniProt P27338, whole entry: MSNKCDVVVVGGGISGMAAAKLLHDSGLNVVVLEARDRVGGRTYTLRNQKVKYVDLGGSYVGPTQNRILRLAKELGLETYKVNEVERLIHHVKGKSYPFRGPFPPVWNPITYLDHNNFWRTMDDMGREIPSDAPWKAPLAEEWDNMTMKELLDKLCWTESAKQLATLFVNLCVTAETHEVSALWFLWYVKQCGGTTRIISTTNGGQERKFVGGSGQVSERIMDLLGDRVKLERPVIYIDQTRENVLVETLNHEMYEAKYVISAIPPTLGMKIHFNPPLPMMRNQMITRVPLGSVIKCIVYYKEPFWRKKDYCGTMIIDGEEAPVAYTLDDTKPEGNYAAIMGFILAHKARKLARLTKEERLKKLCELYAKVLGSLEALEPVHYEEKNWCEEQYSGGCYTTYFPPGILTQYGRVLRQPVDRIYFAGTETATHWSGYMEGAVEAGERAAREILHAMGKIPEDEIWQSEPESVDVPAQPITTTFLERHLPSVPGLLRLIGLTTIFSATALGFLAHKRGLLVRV
UniProt P21397, whole entry: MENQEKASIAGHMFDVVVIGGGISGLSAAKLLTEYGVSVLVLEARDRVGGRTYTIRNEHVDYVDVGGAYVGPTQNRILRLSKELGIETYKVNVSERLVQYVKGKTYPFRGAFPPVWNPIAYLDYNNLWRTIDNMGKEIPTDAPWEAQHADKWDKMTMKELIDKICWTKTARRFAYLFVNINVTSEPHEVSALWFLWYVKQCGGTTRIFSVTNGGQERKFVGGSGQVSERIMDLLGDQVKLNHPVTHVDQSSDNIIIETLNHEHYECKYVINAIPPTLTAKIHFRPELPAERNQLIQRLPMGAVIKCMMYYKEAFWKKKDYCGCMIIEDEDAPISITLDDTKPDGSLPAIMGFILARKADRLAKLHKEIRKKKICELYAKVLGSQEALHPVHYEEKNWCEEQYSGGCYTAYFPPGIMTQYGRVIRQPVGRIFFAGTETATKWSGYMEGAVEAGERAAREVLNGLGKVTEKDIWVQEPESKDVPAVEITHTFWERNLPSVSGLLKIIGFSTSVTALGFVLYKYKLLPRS

Assays:
[1] = biological target: Human recombinant monoamine oxidase MAO-B (Homo sapiens (Human), UniProt P27338); test: Monoamine oxidase assay (kynuramine to 4-hydroxyquinoline fluorescence), MAO-B; type: biochemical; settings: for Ki: Ki value used as designation for the IC50 value, range classes
[2] = biological target: Human recombinant monoamine oxidase MAO-A (Homo sapiens (Human), UniProt P21397); test: Monoamine oxidase assay (kynuramine to 4-hydroxyquinoline fluorescence), MAO-A; type: biochemical

| SMILES | IC50 [2] [µM] | IC50 [1] [µM] | Ki [1] [µM] |
| --- | --- | --- | --- |
| c1ccc([C@H]2C[C@@H]2NC2CCNCC2)cc1 (racemic) [Example 1, N-((trans)-2-phenylcyclopropyl)piperidin-4-amine hydrochloride] | – | > 100 | > 100 |
| c1ccc(COc2ccc([C@@H]3C[C@H]3NC3CCNCC3)cc2)cc1 (relative stereo) [Example 4, N-((trans)-2-(4-(benzyloxy)phenyl)cyclopropyl)piperidin-4-amine hydrochloride] | – | 3.18 | 1 to 10 |
| Clc1ccc(-c2ccc([C@H]3C[C@@H]3NCCC3CCOCC3)cc2)cc1 (relative stereo) [Example 9, (Trans)-2-(4′-chloro-[1,1′-biphenyl]-4-yl)-N-(2-(tetrahydro-2H-pyran-4-yl)ethyl)cyclopropanamine hydrochloride] | – | 5.6 | 1 to 10 |
| c1ncc([C@H]2C[C@@H]2NC2CCNCC2)s1 (relative stereo) [Example 18, N-((trans)-2-(thiazol-5-yl)cyclopropyl)piperidin-4-amine] | – | > 100 | – |
| CS(=O)(=O)N1CCC(N[C@H]2C[C@@H]2c2ccccc2)CC1 (relative stereo) [Example 32, 1-(methylsulfonyl)-N-((trans)-2-phenylcyclopropyl)piperidin-4-amine] | – | > 100 | – |
| O=S1(=O)CCC(N[C@H]2C[C@@H]2c2ccc(Br)cc2)CC1 (relative stereo) [Example 41, 4-(((trans)-2-(4-bromophenyl)cyclopropyl)amino)tetrahydro-2H-thiopyran 1,1-dioxide] | > 50 | – | – |
| c1ccc([C@H]2C[C@@H]2NC2CCNCC2)cc1 [Example 2, N-((1S,2R)-2-phenylcyclopropyl)piperidin-4-amine hydrochloride] | – | > 100 | > 100 |
| c1ccc([C@@H]2C[C@H]2NC2CCNCC2)cc1 [Example 3, N-((1R,2S)-2-phenylcyclopropyl)piperidin-4-amine hydrochloride] | – | > 100 | – |

Now from value to compound, other results behind:

| IC50 [2] [µM] | SMILES | IC50 [1] [µM] | Ki [1] [µM] |
| --- | --- | --- | --- |
| > 100 | CN1CCC(N[C@H]2C[C@@H]2c2ccccc2)CC1 (relative stereo) [Example 37, 1-methyl-N-((trans)-2-phenylcyclopropyl)piperidin-4-amine] | > 100 | – |
| > 100 | CC(C)N1CCC(N[C@H]2C[C@@H]2c2ccccc2)CC1 (relative stereo) [Example 38, 1-isopropyl-N-((trans)=2-phenylcyclopropyl)piperidin-4-amine] | – | – |
| > 100 | c1ccc([C@H]2C[C@@H]2NC2CCN(c3ccncc3)CC2)cc1 (relative stereo) [Example 40, N-((trans)-2-phenylcyclopropyl)-1-(pyridin-4-yl)piperidin-4-amine] | – | – |
| > 100 | Fc1ccccc1C1CC1NC1CCNCC1 (stereo not drawn) [Example 20, N-(2-(2-fluorophenyl)cyclopropyl)piperidin-4-amine] | > 100 | – |

Structures can show the parent of a compound that is named as a salt.
